{"source": "paper PMC7286788", "about": "(ACS infectious diseases, 2019)", "test": "Storage stability of lipid I", "conditions": "4 : 1 mixture of DMSO and 0.05M NaHCO3 at -20 °C"}
{"substance": "MurNAc(pentapeptide)-pyrophosphoryl prenol [Lipid I]", "values": [{"measurement": "Storage time without decomposition", "result": "over 8 months"}]}
